The test system of one series is CYP2C8 mRNA. The note with it: hepatocytes.
A further series relates to MDR1 mRNA. In words: Northern analysis of MDR1 expression in human LS180 cells.
Series [1] deals with T1, human SXR ligand binding domain (Homo sapiens, UniProt O75469).
T1 sequence (O75469 107-434 limits assumed): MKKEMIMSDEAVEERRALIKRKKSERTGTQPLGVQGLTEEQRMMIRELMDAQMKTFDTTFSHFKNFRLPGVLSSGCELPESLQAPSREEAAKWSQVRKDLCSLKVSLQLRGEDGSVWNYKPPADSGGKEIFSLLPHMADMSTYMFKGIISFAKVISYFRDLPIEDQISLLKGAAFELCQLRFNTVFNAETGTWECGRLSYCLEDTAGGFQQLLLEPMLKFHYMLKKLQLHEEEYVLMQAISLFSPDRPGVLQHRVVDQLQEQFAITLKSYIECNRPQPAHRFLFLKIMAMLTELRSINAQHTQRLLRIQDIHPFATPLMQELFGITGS
Put plainly: Gal-L-SXR (Gal-SXR) Gal4 reporter transient transfection assay in CV-1 cells. The note with it: 2.5 μM hyperforin, 10 μM rifampicin, 3 μM ritonavir, 10 μM PCN.

Take hyperforin: the “CYP2C8 mRNA expression” value in the series with CYP2C8 mRNA is recorded as “strongly activated”. Also, the “MDR1 mRNA expression” value in the series with MDR1 mRNA was “very strongly induced”. For the same substance, the “activation of Gal-SXR” value in series [1] was “activated”.

For the origin of these results see patent US20020061836A1.
